By UniProt entry, the sequences of proteins in these tests, tags left out. Residues count along the entry.
UniProt Q00987, 1-294: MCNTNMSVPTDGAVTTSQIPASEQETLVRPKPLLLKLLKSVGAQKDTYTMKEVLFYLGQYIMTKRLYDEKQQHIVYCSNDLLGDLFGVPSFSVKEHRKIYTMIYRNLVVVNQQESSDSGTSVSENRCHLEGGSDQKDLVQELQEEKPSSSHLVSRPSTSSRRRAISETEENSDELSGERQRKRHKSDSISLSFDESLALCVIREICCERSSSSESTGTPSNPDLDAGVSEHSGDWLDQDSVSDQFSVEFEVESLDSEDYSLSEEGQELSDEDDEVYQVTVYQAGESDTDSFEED

According to PMC3057987 (PLoS ONE, 2011):

Target: T1, MDM2 (Homo sapiens, UniProt Q00987)
T1 construct: The cDNA of MDM2 (7–300 amino acids) was amplified by PCR; made in house; host or cells: wheat germ cell-free translation system (Promega)
Experiment: In vitro binding (pull-down) assay of GFP-fused peptides with MDM2 immobilized on IgG beads
Conditions: GFP-fused peptide, fluorescence after SDS-PAGE
Protocol: To examine the ability of the peptides to bind to MDM2, we constructed plasmids for the expression of GFP-fused peptides and performed pull-down assays between the GFP-fused peptides and MDM2 (Fig. S1). […] As previously reported, inhibition of the MDM2-p53 interaction leads to activation of the p53 pathway, [13], [14].
The GFP-tagged peptide was incubated with MDM2 immobilized on IgG beads for 1 h at 4°C. The beads were washed three times with IPP150, followed by vortexing to elute the bound molecules. The resulting eluate was loaded on a 10% SDS-PAGE gel, and the fluorescence of the GFP tag was detected with a Molecular-Imager FX (BioRad, Richmond, CA, USA).

GFP-p53_13–28: GFP-fused wild-type p53 13–28 peptide (PLSQETFSDLWKLLPE; left off: GFP, end not stated, kept) [reference compound]
binding to MDM2 immobilized on beads: not
